# This is a selection; strong and weak results do not stand in their true shares. Calls of active or inactive are those of the source.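 How the source made its calls: active means inhibition above a cutoff: mean of compounds within the control limits plus 3 SD of those (cut at about 17% in these data); inactive means the rest.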
# By UniProt entry, the sequences of proteins in these tests, tags left out.
# UniProt Q9HAT2, whole entry: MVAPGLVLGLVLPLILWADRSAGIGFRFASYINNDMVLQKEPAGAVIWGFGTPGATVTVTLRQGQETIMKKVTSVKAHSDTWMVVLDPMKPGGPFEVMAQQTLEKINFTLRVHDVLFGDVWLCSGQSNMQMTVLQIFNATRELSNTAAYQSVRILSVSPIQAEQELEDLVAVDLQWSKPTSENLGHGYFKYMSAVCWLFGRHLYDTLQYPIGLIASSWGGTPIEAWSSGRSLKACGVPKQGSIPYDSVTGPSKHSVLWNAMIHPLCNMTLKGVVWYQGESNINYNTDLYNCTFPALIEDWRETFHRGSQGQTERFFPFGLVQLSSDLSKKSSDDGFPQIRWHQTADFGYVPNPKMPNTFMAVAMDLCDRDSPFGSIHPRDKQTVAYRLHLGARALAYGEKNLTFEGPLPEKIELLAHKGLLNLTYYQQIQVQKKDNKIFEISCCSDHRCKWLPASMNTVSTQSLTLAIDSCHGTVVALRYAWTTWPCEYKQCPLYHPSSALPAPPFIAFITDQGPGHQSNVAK
# Molecular target: Sialate O-acetylesterase (Homo sapiens) (UniProt Q9HAT2)
# Assay: human SIAE inhibitors, primary screen, biochemical, fluorescence polarization, FP-Rh probe, 1536-well HTS (AID 1053197);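 further: 0% = plate median of compound wells and 100% = probe without SIAE protein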
# Conditions: SIAE FP-Rh probe binding, at 9.66 µM, hits give high values
row,Compound,inhibition
1,CCC(=O)N(c1ccccc1)C1(COC)CCN(CCc2cccs2)CC1,inactive: -3.16%
2,CCC(=O)N(c1ccccc1)C1(COC)CCN(CCn2nnn(CC)c2=O)CC1,inactive: 3.38%

# From PubChem BioAssay AID1053197 (The Scripps Research Institute Molecular Screening Center, 2014)
